Experiments:
[1] = system: U87-luc orthotopic tumors; test: mRNA expression (RT-qPCR) of GB invasion, inflammation, stemness and UPR markers in orthotopic U87-luc tumors; conditions: i.p. 300 μg/kg daily, 34 days
Source text: Tumor cell orthotopic implantation—Tumor cells (U87-Luc (A. Jabouille, et al., Oncotarget, 2015, 6, 24922-24934)) were implanted into the brain of immunodeficient NMRI-Foxnlnu/Foxn1nu, 8 weeks old male mice (Janvier Laboratories, Laval, France). All animal procedures met the European Community Directive guidelines (Agreement B35-238-40 Biosit Rennes, France/No DIR 13480) and were approved by the local (University of Rennes) ethics committee and ensuring the breeding and the daily monitoring of the animals in the best conditions of wellbeing according to the law and the rule of 3R (Reduce-Refine-Replace). U87-Luc cells were implanted in the mouse brain by intracerebral injection followed by tumor growth monitoring using bioluminescence (PhotonIMAGER™ systems, BIOSPACE LAB). The mice were anesthetized intraperitoneally (i.p. mix Xylazine 10 mg/kg and Ketamin 60 mg/kg) and then fixed on a stereotactic frame. This framework makes it possible to manipulate the brains of living animals, and to reach isolated areas of the brain precisely relative to markings visible to the naked eye through the use of three-dimensional coordinates. After incising the scalp, the stereotaxic coordinates were calculated for injection of tumor cells into a specific point of the brain, and reproducible for all the mice used. In the study, the tumor cells (5×10^4 cells per mice in 1 μL) were injected at Bregma 0, 2.2 mm to the left of the bregma and 3.2 mm deep to perform the implantation at the level of the striatum.
Mouse treatments—Four days after tumor cells implantation, compound 28 (Z4P) treatments were started consisting in treatments of 300 μg/kg/day intraperitonially. For the RNA quantification experiment, performed on tumors generated in mice, three mice per group were treated according to the methods above. Mice were sacrificed at day 34 and the brains were removed and extract the tumor. The samples were used to extract RNA for the analysis, as described below.
Quantitative real-time PCR—Total RNA was prepared using TRIzol reagent (Invitrogen, Carlsbad, CA, USA). All RNAs were reverse-transcribed with Maxima Reverse Transcriptase (Thermo Scientific, Waltham, MA, USA), according to manufacturer protocol. qPCR was performed via a StepOnePlus™ Real-Time PCR Systems from Applied Biosystems and the SYBR Green PCR Core reagents kit (Takara). Analysis was carried out using QuantStudio™ Design and Analysis software version 1.3.1. Three technical repeats were performed per experiment and at least three biological repeats were performed per point per experiment. Each sample was extract individually for RNA and performed the quantification of mRNA levels by qPCR for several targets.
To characterize compound 28 (Z4P) in vivo, murine models growing orthotopic tumors generated by injection of U87-luc cells were utilized (25). First, intraperitoneal (IP) escalating doses of compound 28 (Z4P) (50 μg/kg to 300 μg/kg) were administered to determine compound 28 (Z4P) toxicity in vivo. This was done in WT mice and no toxicity was detected in any of the concentrations tested (FIG. 4A). […] To do so, U87-luc cells were orthotopically implanted in the mouse brain and the tumor was allowed to grow. At day 4 post implantation, a small tumor formation was detected using bioluminescence (data not shown). Thereafter, mice were randomized in different groups and compound 28 (Z4P) daily treatments (i.p. 300 μg/kg) were administered for 34 consecutive days (FIG. 5A). Upon completion of this time period, mouse brains were entirely excised and dissected. The corresponding tumors were resected, dissociated and RNA was extracted from them. The splicing of Xbp1 mRNA was evaluated in control tumors and in animals treated with compound 28 (Z4P). […] Using the same mRNA samples, the expression levels of other GB invasion, inflammation and UPR markers using RT-qPCR were also evaluated (data not shown). […]

[2] = In vivo toxicity of escalating IP doses in WT mice; conditions: i.p. 50 μg/kg to 300 μg/kg (FIG. 4A, weight tracking over 7 days)
Source text: FIG. 4: In vivo effects of compound 28 (Z4P). (A) Weight tracking of animals treated with 3 different concentrations of compound 28 (Z4P) over 7 days. (B) Kaplan-Meier representation of mouse survival under this regiment (black: control; red: compound 28 (Z4P); blue: TMZ; yellow: compound 28 (Z4P)+TMZ). (C) Quantitative analysis of bioluminescence imaging signal over 35 days of experiment for the control (PBS) and compound 28 (Z4P) groups. Symbols and error bars represent mean values t SEM (number of animals are indicated in the Methods section of Biological evaluation).
To characterize compound 28 (Z4P) in vivo, murine models growing orthotopic tumors generated by injection of U87-luc cells were utilized (25). First, intraperitoneal (IP) escalating doses of compound 28 (Z4P) (50 μg/kg to 300 μg/kg) were administered to determine compound 28 (Z4P) toxicity in vivo. This was done in WT mice and no toxicity was detected in any of the concentrations tested (FIG. 4A). […] At day 4 post implantation, a small tumor formation was detected using bioluminescence (data not shown). […] The splicing of Xbp1 mRNA was evaluated in control tumors and in animals treated with compound 28 (Z4P). […] Using the same mRNA samples, the expression levels of other GB invasion, inflammation and UPR markers using RT-qPCR were also evaluated (data not shown). […]

Cc1ccc(C)c(NC(=O)NC(C)CCc2ccc(O)cc2)c1 (racemic)
E-cadherin (Cdh1) mRNA [1]: remained unchanged | Vegfa mRNA [1]: levels decreased | Vimentin expression [1]: clear upregulation | expression of stemness genes (Cd133, Olig2, Sox2, Cd44 and Sall2) [1]: no expression difference | mRNA expression of ER stress markers (Chop, Herpud1 and Perk), apart from Bip [1]: decreased | mRNA levels of inflammation genes (11-6 and 11-8) [1]: remarkable decrease | toxicity in vivo [2]: no toxicity was detected

From patent US20260382588A1, “COMPOUNDS CONTAINING A HYDROXYPHENYL MOIETY AND THEIR USE” (published 2026)
